Measured values published in the NIST ThermoML archive (doi:10.1021/je200628n).

Experiment: activity coefficient (dimensionless); of the first substance listed, at infinite dilution; xn = mol fraction of the nth substance listed
Conditions: 101 kPa, Liquid, Chromatography, x1 = 0

Row | activity coefficient (328.15 K) | activity coefficient (338.15 K) | activity coefficient (343.15 K) | activity coefficient (348.15 K) | activity coefficient (338.2 K) | activity coefficient (353.22 K) | activity coefficient (348.25 K) | activity coefficient (353.15 K) | activity coefficient (358.25 K) | activity coefficient (363.21 K) | Compound
1 | 8.79 ± 0.45 | 7.79 ± 0.4 | 7.42 ± 0.38 | 7.18 ± 0.37 |  |  |  |  |  |  | CCCCOCCCC [dibutyl ether] + NCCCCCCCCN
2 |  |  |  | 7.5 ± 0.39 | 7.94 ± 0.41 | 7.39 ± 0.38 |  |  |  |  | CCCCOCCCC [dibutyl ether] + NCCCCCCCCCCN
3 |  |  |  |  |  |  | 8.93 ± 0.46 | 8.47 ± 0.44 | 7.9 ± 0.41 | 7.45 ± 0.38 | CCCCOCCCC [dibutyl ether] + NCCCCCCCCCCCCN

± gives the expanded uncertainty stated by the source.
